Biological target: Dual specificity tyrosine-phosphorylation-regulated kinase 1A (Homo sapiens, UniProt Q13627)
Experiment: Inhibition of recombinant Dyrk1A (unknown origin) using KKISGRLSPIMTEQ-NH2 peptide substrate
How it was run: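 Kinase activity was measured in a cell-free assay with recombinant enzyme and peptide substrate at 100 μM ATP. Values are reported as IC50.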

IC50: 830 nM
Compound: CCN1/C(=C/C(C)=O)Sc2ccc(OC)cc21
